In PubChem BioAssay AID743258 (The Scripps Research Institute Molecular Screening Center, 2014) one finds inhibition data, which are given here for 1 molecule.

Chains of the proteins cited; added tags and fusions are not shown.
UniProt P19174, whole entry: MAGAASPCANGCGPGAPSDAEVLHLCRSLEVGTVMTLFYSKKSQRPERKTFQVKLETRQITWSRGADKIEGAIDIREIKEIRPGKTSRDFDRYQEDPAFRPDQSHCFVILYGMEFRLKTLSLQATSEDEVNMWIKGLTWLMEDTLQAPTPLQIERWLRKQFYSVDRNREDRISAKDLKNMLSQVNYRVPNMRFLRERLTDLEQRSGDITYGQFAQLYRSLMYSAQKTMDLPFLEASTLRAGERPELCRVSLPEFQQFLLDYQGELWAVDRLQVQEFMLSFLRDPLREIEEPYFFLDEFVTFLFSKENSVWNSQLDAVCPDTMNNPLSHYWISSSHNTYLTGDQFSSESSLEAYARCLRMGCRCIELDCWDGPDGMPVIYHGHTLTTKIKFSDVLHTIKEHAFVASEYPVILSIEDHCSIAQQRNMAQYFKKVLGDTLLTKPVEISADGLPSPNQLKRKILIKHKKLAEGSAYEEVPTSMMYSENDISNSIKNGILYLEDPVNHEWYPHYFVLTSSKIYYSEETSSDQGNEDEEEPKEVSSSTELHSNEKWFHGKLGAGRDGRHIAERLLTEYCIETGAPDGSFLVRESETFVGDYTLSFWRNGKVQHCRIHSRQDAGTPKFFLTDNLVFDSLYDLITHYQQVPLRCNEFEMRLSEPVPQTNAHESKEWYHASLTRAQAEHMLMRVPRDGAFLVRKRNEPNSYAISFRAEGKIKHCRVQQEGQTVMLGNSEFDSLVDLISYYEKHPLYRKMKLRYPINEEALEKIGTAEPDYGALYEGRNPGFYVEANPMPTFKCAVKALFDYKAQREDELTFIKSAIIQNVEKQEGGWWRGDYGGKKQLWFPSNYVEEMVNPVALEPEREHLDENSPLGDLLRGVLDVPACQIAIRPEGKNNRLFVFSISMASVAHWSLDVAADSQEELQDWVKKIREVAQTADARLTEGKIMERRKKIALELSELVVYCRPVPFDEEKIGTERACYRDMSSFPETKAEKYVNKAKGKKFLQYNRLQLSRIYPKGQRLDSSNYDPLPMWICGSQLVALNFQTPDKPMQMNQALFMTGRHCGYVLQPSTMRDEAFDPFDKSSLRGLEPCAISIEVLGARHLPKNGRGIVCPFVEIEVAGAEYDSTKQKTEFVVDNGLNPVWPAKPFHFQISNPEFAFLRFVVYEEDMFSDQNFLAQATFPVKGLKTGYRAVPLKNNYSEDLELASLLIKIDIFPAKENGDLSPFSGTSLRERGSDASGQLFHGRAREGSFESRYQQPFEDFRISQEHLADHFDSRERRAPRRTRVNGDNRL

This is a selection; strong and weak results do not stand in their true shares. Some of these compounds have results that are not shown, active ones among them. Active and inactive are the calls of the source. No stated cut-off is given here; in the data, active means inhibition above about 9.5%; inactive means the rest.

The assay concerns the target 1-phosphatidylinositol 4,5-bisphosphate phosphodiesterase gamma-1 (Homo sapiens) (UniProt P19174). Description: PLC-gamma1 enzyme inhibitors, counter-screen for PLC-beta3 inhibitor project, biochemical, fluorescence (AID 743258). The note with it: purified PLC-gamma1, fluorogenic substrate, at 12.3 µM, active compounds read high. A general note: The purpose of a counterscreen is to sort out artefacts and off-target activity.
With `CCN1CCCC(OC(=O)C2(O)c3ccccc3C=Cc3ccccc32)C1` (stereo unspecified), the inhibition was inactive: -0.43%.

In general, inhibition refers to the change of the read-out against control, counted positive when it falls.
